Test results taken from BindingDB's records for patent US10357546 (University of Notre Dame Du Lac, 2019).

The chains behind the UniProt entries cited, without tags or fusion partners. Where a name states a change or a piece, a line headed by the entry shows the natural chain unless it says otherwise.
UniProt P22894: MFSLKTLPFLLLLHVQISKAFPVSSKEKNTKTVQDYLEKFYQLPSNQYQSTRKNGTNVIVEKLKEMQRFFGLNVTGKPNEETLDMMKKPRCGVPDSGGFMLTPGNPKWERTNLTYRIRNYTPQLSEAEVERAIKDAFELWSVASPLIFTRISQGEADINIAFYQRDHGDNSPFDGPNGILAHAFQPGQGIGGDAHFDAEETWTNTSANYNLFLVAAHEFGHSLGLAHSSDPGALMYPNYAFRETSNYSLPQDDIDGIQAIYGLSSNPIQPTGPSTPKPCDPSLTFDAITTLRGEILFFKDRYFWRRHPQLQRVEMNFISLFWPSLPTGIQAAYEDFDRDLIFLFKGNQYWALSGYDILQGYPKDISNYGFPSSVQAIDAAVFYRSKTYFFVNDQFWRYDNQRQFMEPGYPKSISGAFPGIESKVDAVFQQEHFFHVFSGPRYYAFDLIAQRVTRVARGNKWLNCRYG

Biological target: Neutrophil collagenase (Homo sapiens, UniProt P22894)
Test: Enzyme Inhibition Assay

With `CC(=O)Nc1ccc(Oc2ccc(S(=O)(=O)CC3CS3)cc2)cc1` (stereo unspecified) [US10357546, ND-364] the Ki was 3.4 µM.
